Measurements reported in ChEMBL document CHEMBL4376818, “Discovery of Novel Pyrazolo-pyridone DCN1 Inhibitors Controlling Cullin Neddylation” (J Med Chem, 2019).

Experiment: Kinetic aqueous solubility of compound at pH 7.4
Format: physicochemical
Settings: buffer, read-out: Kinetic_solubility

CCN1C(=O)[C@@H](NC(=O)c2cccc(C)c2)[C@@H](c2ccc(F)cc2)c2c(C)nn(-c3ccccc3)c21 (relative stereo)
solubility kinetic: 16.6 µM (≈ 8.01 µg/mL)

Values after ≈ are worked out from the molar mass of the structure shown.
